One assay concerns the target HLA-A03.01 (human). The assay is described as follows: pMHC-I dissociation half-life, 125I-b2m. The note with it: remark: other sources report otherwise.
A further assay deals with HLA-A11.01 (human). The assay is described as follows: pMHC-I dissociation half-life, 125I-b2m. The following applies: remark: other sources report otherwise.

Consider VVVGACGVGK […], for which the Measured stability with HLA-A03.01 (human) was 2.5 h; in the assay with HLA-A11.01 (human), 15.7 h.
